Compound activity: PubChem BioAssay, Broad Institute
Rows were chosen to be rich in hits. Some 1.6% of all compounds tested hit in one or more screens of this group.
Yeast UUG start – alters start codon recognition fidelity in yeast; S. cerevisiae UUG-firefly luciferase reporter, luminescence/redox ratio; activity score, % at 18.7 µM; actives 0.13% (n = 350,000);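 active means replicate mean at a twofold rise or more, about +100% in these data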;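 further: firefly luciferase made from a UUG start codon reports start codon fidelity; reporter light over untreated wells divided by growth signal over untreated wells; some hits fall short of that in this replicate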
PglD DTNB – C. jejuni PglD acetyltransferase inhibitors, primary screen, biochemical, DTNB colorimetric, single point; inhibition, % at 12.5 µM; purified PglD enzyme, DTNB colorimetric CoA detection; actives 0.098% (n = 360,000); AID 602405, 2012; UDP-N-acetylbacillosamine N-acetyltransferase PglD (Campylobacter jejuni); in the data active = inhibition above about 16%, passing the limit was not always enough
ARNT TACC3 PPI – disruptors of ARNT/TACC3 protein interaction, primary screen, biochemical, AlphaScreen, single concentration; Transforming acidic coiled-coil-containing protein 3 (Homo sapiens), Q9Y6A5; AlphaScreen His-ARNT PAS-B/GST-TACC3 binding, luminescence; TACC3 fragment carries E629A point mutation; inhibition, % at 9.99 µM; AID 623870, 2012; actives 0.66% (n = 390,000);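 active = mean inhibition of replicates at least 50% and at least half of replicates each reaching 50%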;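 also: 0% = complete ARNT plus TACC3 wells and 100% = ARNT alone without TACC3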
Vif imaging – HIV Vif self-association inhibitors, primary screen, imaging, HEK293T, single point. HEK293T cells, Vif self-association by quenched fluorescence, 24 h. actives 0.35% (n = 340,000). inhibition, % at 7.49 µM; in the data active = inhibition above about 50%, passing the limit was not always enough
CAL PDZ FP-1 – CAL PDZ peptide-binding inhibitors, primary screen, biochemical, fluorescence polarization, Cer-tagged CAL PDZ, HTS. Golgi-associated PDZ and coiled-coil motif-containing protein (Homo sapiens), Q9HD26. purified CAL PDZ, TMR-peptide fluorescence polarization, 1 h. inhibition, % at 20 µM. actives 0.02% (n = 330,000);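 active = highest replicate inhibition of at least 40%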;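 also: plate controls were DMSO neutral control wells for no effect and unlabeled competitor peptide control wells for full effect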
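Read-out basis: mP drop reported as inhibition | Assay system: Tagged CAL PDZ protein CerCALP, purified | Benchmarks: Unlabelled peptide for full inhibition, DMSO wells as neutral | Schedule: 1 h incubation at room temperature before polarization reading | Buffer or medium: Sodium phosphate/NaCl buffer pH 7.4 with TCEP, IgG, Thesit | Doses: Single point, 20 µM | Measured by: Fluorescence polarization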
CAL PDZ FP-2 – untagged CAL PDZ binding inhibitors, primary screen, biochemical, fluorescence polarization, HTS | AID 602252, 2012 | Golgi-associated PDZ and coiled-coil motif-containing protein (Homo sapiens), Q9HD26 | purified CAL PDZ, TMR-peptide fluorescence polarization, 1 h | inhibition, % at 24.9 µM | actives 0.92% (n = 300,000);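 active = mean inhibition of at least 30% with at least half of replicates also reaching 30%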;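 also: 0% = DMSO neutral control and 100% = excess unlabeled competitor peptide PRC23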
* marks the source's active call; other numbers are inactive results; / = no result given.

Keys: A = Yeast UUG start; B = PglD DTNB; C = ARNT TACC3 PPI; D = Vif imaging; E = CAL PDZ FP-1; F = CAL PDZ FP-2
> COC(=O)CSc1nnc(CNC(=O)c2ccc(OC)c(OC)c2)n1C
  A: /; B: /; C: -2; D: 9; E: -2; F: 38*

> CCSc1nnc(NC(=O)CSc2nncc(=O)n2N)s1
  A: -4; B: -2; C: 70*; D: 0; E: 0; F: 0

> CCc1nnc(NC(=O)CSc2nncc(=O)n2N)s1
  A: -12; B: 2; C: -6; D: 7; E: -3; F: -2

> Cn1cnc(CCNC(=O)C[C@H]2CC[C@@H]3[C@H](COC[C@H](O)CN3C(=O)Nc3ccccc3)O2)c1
  A: -1; B: 3; C: 11; D: /; E: /; F: /

> COC(=O)[C@@H](NC(=O)c1ccccc1OC1CCN(S(C)(=O)=O)CC1)C(C)C
  A: -4; B: 7; C: -2; D: 0; E: 1; F: /

> CC(Cc1cccnc1)NC(=O)c1ccccc1OC1CCN(S(C)(=O)=O)CC1 (stereo not drawn)
  A: /; B: /; C: -11; D: -7; E: -2; F: 31*

> CN(CCCC1CCCC1)C(=O)CC1C(=O)NCCN1Cc1ccc(F)cc1 (stereo not drawn)
  A: -3; B: 0; C: 4; D: /; E: -2; F: 41*

> CN(CCC1CCOCC1)C(=O)CC1C(=O)NCCN1Cc1ccoc1 (stereo not drawn)
  A: /; B: /; C: 4; D: 4; E: 1; F: -3

> O=C(C[C@H]1CC[C@@H]2[C@H](COC[C@@H](O)CN2C(=O)Nc2ccccc2)O1)NCCc1ccncc1
  A: -20; B: -1; C: -7; D: /; E: /; F: /

> CO[C@@H]1CN(C)C(=O)c2ccc(NC(=O)Nc3c(C)noc3C)cc2OC[C@@H](C)NC[C@@H]1C
  A: /; B: 3; C: 4; D: /; E: /; F: /

> CCNC(=O)c1cc2c(=O)n3cccc(C)c3nc2n(Cc2ccc(C)cc2)c1=N
  A: -4; B: -4; C: -6; D: -2; E: 0; F: -4

> CCCn1c(=N)c(C(=O)NCc2ccc3c(c2)OCO3)cc2c(=O)n3cccc(C)c3nc21
  A: -10; B: -3; C: 3; D: 93*; E: -1; F: /

> COc1cccc(C(C)(O)c2nc(-c3ccccc3OC)cs2)c1 (stereo not drawn)
  A: -9; B: -1; C: /; D: 57*; E: /; F: /

> Cc1cccc(C)c1NC(=O)NCCCN1CCN(c2ccccc2)CC1
  A: -14; B: 6; C: 2; D: -2; E: -1; F: 51*

> CC1CCCC(C)N1C(=O)CSc1nnc(NC(=O)c2cccs2)s1 (stereo not drawn)
  A: 11; B: 1; C: -7; D: 109*; E: 0; F: -8

Further entries:
Keys: A = Yeast UUG start; B = PglD DTNB; C = ARNT TACC3 PPI; D = Vif imaging; E = CAL PDZ FP-1; F = CAL PDZ FP-2
> CC(NNC(=S)N1CCN(c2ccccn2)CC1)c1nccc2ccccc12 (stereo not drawn)
  A: /; B: /; C: 63*; D: 2; E: -1; F: -2

> CCNC(=S)N1CCN(c2ccccn2)CC1
  A: /; B: /; C: -2; D: 4; E: 0; F: 0

> CN(C)CC(=O)c1c(N)n(Cc2ccccc2)c(=O)n(C)c1=O
  A: /; B: /; C: -4; D: 2; E: -2; F: 82*

> C[C@@H]1CN([C@@H](C)CO)C(=O)c2cc(C#CC3(O)CCCC3)cnc2O[C@H]1CN(C)C(=O)C1CCC1
  A: 8; B: 0; C: -2; D: /; E: /; F: /

> C[C@H](CO)N1C[C@H](C)[C@@H](CN(C)Cc2ccc3c(c2)OCO3)Oc2ccc(NC(=O)Nc3ccccc3)cc2CC1=O
  A: 17; B: -1; C: 5; D: /; E: /; F: /

> Cc1cccc(N2NC(=O)/C(=C/c3ccc(-c4ccc(Cl)c(C(=O)O)c4)o3)C2=O)c1
  A: /; B: /; C: -6; D: -3; E: 0; F: 97*

> O=C1NN(c2ccccc2)C(=O)/C1=C/c1ccc(-c2ccc(Cl)c(C(=O)O)c2)o1
  A: /; B: /; C: 2; D: 4; E: -1; F: -6

> Cc1ccc(Nc2nc(N)nc(CSc3nccn3C)n2)c(C)c1
  A: -10; B: 3; C: 1; D: 0; E: -1; F: 38*

> Cc1ccc(SCc2nc(N)nc(Nc3ccccc3C)n2)c(C)c1
  A: /; B: /; C: 3; D: 11; E: -2; F: -1

> CCCN1[C@@H]2Cn3c(ccc(-c4ccccc4)c3=O)[C@H]1[C@@H](C(=O)NCCCN1CCOCC1)[C@@H]2CO
  A: 1; B: -1; C: -2; D: /; E: /; F: /

> O=C(Nc1ccc(F)cc1)c1nc[nH]c1C(=O)O
  A: -13; B: -1; C: 54*; D: 12; E: 0; F: 28

Reprinted from the listing, 2 compounds:
Keys: A = Yeast UUG start; B = PglD DTNB; C = ARNT TACC3 PPI; D = Vif imaging; E = CAL PDZ FP-1; F = CAL PDZ FP-2
> CCCN1[C@@H]2Cn3c(ccc(-c4ccccc4)c3=O)[C@H]1[C@@H](C(=O)NCCCN1CCOCC1)[C@@H]2CO
  A: 1; B: -1; C: -2; D: /; E: /; F: /

> O=C(Nc1ccc(F)cc1)c1nc[nH]c1C(=O)O
  A: -13; B: -1; C: 54*; D: 12; E: 0; F: 28
